AlphaSeq binding of Ab-14 light chain variants to a spike HR2 peptide

From the AlphaSeq antibody data of Li et al. 2023 (doi:10.1038/s41467-023-39022-2), copy in the FLAb collection.

Binding partner: SARS-CoV-2 spike HR2 peptide, sequence PDVDLGDISGINAS.

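The starting antibody came from a phage panning campaign against this peptide. This is the validation round: designs drawn from the data on random variants, tested in the same kind of assay. Their group label is 14L_En_Gibbs (En: ensemble of fine-tuned language models; Gibbs: Gibbs sampling). AlphaSeq pools MATa yeast showing the antibodies with MATalpha yeast showing the peptide. After mating in shaken culture at 30 °C for 16 h, diploids were selected and their barcode pairs sequenced. The ratio of observed to expected reads was calibrated, replicate by replicate, on BCL2-family standards whose Kd was known from biolayer interferometry. There are six technical replicates.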

The variants keep the heavy chain, the linker and the frameworks of Ab-14 (scFv order VH, three GGGGS repeats, VL).
VH: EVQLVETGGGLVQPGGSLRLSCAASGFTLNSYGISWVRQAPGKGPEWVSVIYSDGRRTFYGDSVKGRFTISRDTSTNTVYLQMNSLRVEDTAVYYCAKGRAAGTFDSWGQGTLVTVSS
VL: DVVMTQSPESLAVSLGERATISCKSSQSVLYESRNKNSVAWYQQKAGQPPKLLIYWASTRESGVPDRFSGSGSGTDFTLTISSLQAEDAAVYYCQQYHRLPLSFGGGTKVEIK

Variants are written as CDR1, CDR2 and CDR3 of the light chain (limits as in the source). Parent: KSSQSVLYESRNKNSVA, WASTRES, QQYHRLPLS. Affinities are written as log10 Kd with Kd in nM; a lower number is a better binder. Where no diploid with the target was found in that replicate, the entry reads "nd": below detection, most likely a poor binder, though not proof of it.

| # | CDR-L1 | CDR-L2 | CDR-L3 | log10 Kd, replicates | signal with controls |
|---|---|---|---|---|---|
| 1 | HISPMQAMHYEAKNSVA | DTETKLN | QQYIRLPLS | 0.19 / 0.10 / 0.00 / -0.05 / -0.07 / 0.20 | 0/18 |
| 2 | RLSLEHTGYWEMMNNIA | QGSTKQF | QQYDRLPLH | 1.87 / 2.14 / 1.76 / 1.26 / 2.06 / 1.09 | 0/18 |
| 3 | SLAYTQHFGQTGGKAIA | EVATRCQ | QQYFRLPLG | 0.74 / 0.80 / 0.93 / 0.47 / 0.39 / 0.29 | 0/18 |
| 4 | ILEENSDDITEQQNSIA | ETNMVYS | QQYHRLPLA | 0.89 / 0.79 / 1.08 / 2.13 / 0.18 / 0.64 | 0/18 |
| 5 | RFDQTEQEGIQDKNSVA | QGSQSGT | QHYSRLPLS | 1.38 / 2.39 / 1.39 / 2.45 / 1.72 / 3.05 | 2/18 (2.66) |
| 6 | RLQQEHVGYNKKMNAIA | QGSQRCH | QSYDRLPLS | nd / nd / nd / nd / nd / nd | 0/18 |
| 7 | NMRGVEGEIAQHGNSVA | GVDLREA | QQYARLPLH | 0.90 / 0.91 / 0.67 / 0.79 / 0.79 / 0.74 | 2/18 (2.88) |
| 8 | MLENKPTSFNNNKDAIA | DDEASTS | QQYDRLPLS | nd / nd / nd / nd / nd / nd | 0/18 |
| 9 | KLQNFSQEPNGMWNNIA | DMTMKHT | QQYNRLPLV | 1.36 / 0.51 / 0.45 / 0.35 / 0.51 / 1.28 | 0/18 |
| 10 | RLLDWAYGWTMKERNIA | DEDIRGA | QQYSHLPLA | 0.43 / -0.06 / 0.60 / 0.37 / 0.55 / 0.28 | 0/18 |
| 11 | MINMEVGIEDMKWQSVA | SAHVRAF | QQYGRLPFS | 0.83 / 0.83 / 0.26 / 0.30 / 0.67 / 0.93 | 1/18 (1.62) |
| 12 | KLDMNELHQSQNKNCVA | DSAQKCV | QQYSRLPLS | 0.83 / -0.33 / -0.17 / -0.02 / 0.39 / 0.31 | 0/18 |
| 13 | NMVEDEAGDQKNSGNIA | SVDQRED | QQYQKLPLM | -2.50 / -1.25 / -1.07 / -2.21 / -2.04 / -1.94 | 0/18 |
| 14 | ALTNEPESVNHHKNNVA | STSKRCM | QQYARLPLS | 0.99 / 0.75 / 0.86 / 0.84 / 0.57 / 1.05 | 6/18 (3.10) |
| 15 | QLGWVQSGDTLSQGAIA | HAAELVD | QQYFRLPLL | 0.58 / 0.85 / 1.12 / 0.71 / 0.69 / 0.72 | 1/18 (2.53) |
| 16 | ALQMETLGQKQKQNNIA | NQDMRTA | QQYYMLPLV | 0.22 / 0.05 / -0.07 / -0.05 / -0.10 / 0.05 | 0/18 |
| 17 | KFAMGLDYNNAHKSAVA | HADIRNI | QQYFRLPLD | 1.32 / 1.80 / 1.39 / 1.41 / 1.63 / 1.51 | 2/18 (2.46) |
| 18 | QLQLQPQTGLNAQHSIA | DVSAKDM | QQYARLPLH | 0.81 / 0.78 / 0.80 / 0.93 / 0.56 / 0.89 | 4/18 (2.79) |
| 19 | KMETYSQDNRLTISAIA | EASTIYQ | QQYGRLPLS | 1.21 / 0.41 / -0.25 / 0.20 / 0.02 / -0.21 | 0/18 |
| 20 | KLSTGTYGLTGHASNVA | HDEMRWE | QQYHKLPLI | nd / nd / nd / nd / nd / nd | 2/18 (1.70) |
| 21 | MVNQHDEGFKGHKDNIA | NAATKEG | QHYGRLPLS | 1.06 / 0.63 / 0.51 / 0.10 / 0.32 / 1.26 | 1/18 (1.73) |
| 22 | HITSNMFGFGGVASNVA | ETNTLMV | QQYSKLPLM | 0.58 / 0.28 / 0.14 / 0.21 / 0.37 / 0.71 | 0/18 |
| 23 | RLTEHQYMRADANHAVA | DASTRND | QQYHRLPLE | -0.01 / -0.14 / -0.14 / -0.15 / -0.20 / -0.08 | 2/18 (2.24) |
| 24 | LLSGMVEEQETRQQNIA | EVEFRCM | QQYSRLPLS | nd / nd / nd / nd / nd / nd | 0/18 |
| 25 | LLWQDMYNQRNQANAVA | EGNILAN | QQYARLPFS | 1.81 / 0.60 / 0.37 / 1.77 / 0.93 / 0.85 | 1/18 (1.74) |
| 26 | KLDYQADQYGVQCNNVA | HADIREP | QQYFKLPLN | 0.50 / 0.48 / 0.48 / 0.69 / 0.40 / 0.63 | 3/18 (3.94) |
| 27 | KLQNFSQEDDKMWNNIA | ETTMVHT | QQYMTLPLM | 1.87 / 1.29 / 1.91 / 1.03 / 1.00 / 1.52 | 0/18 |
| 28 | MLGSQPTSFRDNKHAIA | DDEARTS | QQYDRLPLS | 0.91 / 2.40 / nd / 1.54 / 1.14 / 1.30 | 1/18 (2.07) |
| 29 | VWQMDHLGQGQYQNNIA | NQDLRTA | QQYYMLPLV | 0.98 / 0.61 / 0.94 / 0.96 / 1.30 / 0.67 | 3/18 (2.04) |
| 30 | QLAVERGQEYKAGAAIA | GKTTKEH | QQYAMLPLS | 0.91 / 0.76 / 0.65 / 0.66 / 0.76 / 0.70 | 2/18 (2.50) |
| 31 | KLDSHEQHGTAQNSAMA | SASVSTQ | QQYSRLPLS | 0.31 / 0.34 / 0.30 / 0.16 / 0.23 / 0.43 | 0/18 |
| 32 | QLQLQPQTGANAQHSIA | DVSEKDM | QQYARLPLH | 0.77 / 0.56 / 0.76 / 0.64 / 0.94 / 0.93 | 3/18 (3.79) |

The authors' rule: three or more of the six replicates give a measured affinity, fewer mean a poor binder. A sequence measured in both rounds can read differently, since the two assays cover different ranges. Three control strains display no target. For all light chain designs, 4% of the pairings with them gave a signal, with a median of 2.64 and one signal in twenty below 1.59, so weak values seen in few replicates may be background. Also given: how often the same scFv was detected with the empty control strains, with their mean in brackets.